Read-outs that look alike come from different tables or passages of the source.
Columns and labels:
[1] = target: nociceptin (NOP) receptor (Homo sapiens, UniProt P41146); test: Radioligand binding assay, [3H]N/OFQ, membranes of CHO cells transfected with human NOP receptor
kappa opioid receptor = kappa opioid receptor (Homo sapiens, UniProt P41145); test: Radioligand binding assay, [3H]U69593, membranes of CHO cells transfected with human kappa opioid receptor
mu opioid receptor = mu opioid receptor (Homo sapiens, UniProt P35372); test: Radioligand binding assay, [3H]DAMGO, membranes of CHO cells transfected with human mu opioid receptor
[2] = read-out: Receptor Binding Ki (nM) NOP, Compounds of Formula (II), CHO cell membranes
[3] = read-out: Receptor Binding Ki (nM) κ, Compounds of Formula (II), CHO cell membranes
[4] = read-out: Receptor Binding Ki (nM) μ, Compounds of Formula (II), CHO cell membranes
[5] = read-out: Receptor Binding Ki (nM) NOP, Compounds of Formula (III), CHO cell membranes
[6] = read-out: Receptor Binding Ki (nM) κ, Compounds of Formula (III), CHO cell membranes
[7] = read-out: Receptor Binding Ki (nM) μ, Compounds of Formula (III), CHO cell membranes

| Compound | Ki [1, 2] | Ki (kappa opioid receptor; [3]) | Ki (mu opioid receptor; [4]) | Ki [1, 5] | Ki (kappa opioid receptor; [6]) | Ki (mu opioid receptor; [7]) |
| --- | --- | --- | --- | --- | --- | --- |
| CC(C)[C@H]1CC[C@@H](N2CCC(n3cc(CNC(=O)CNC(=O)OCc4ccccc4)c4ccccc43)CC2)CC1 | 15 to 150 nM | 150 to 5000 nM | 15 to 150 nM |  |  |  |
| CC(C)[C@H]1CC[C@@H](N2CCC(n3c(CCO)c(CN)c4ccccc43)CC2)CC1 (relative stereo) | < 15 nM |  | < 15 nM |  |  |  |
| CC1(C)CCC(N2CCC(n3c(CO)cc4ccccc43)CC2)CC1 | < 15 nM | 15 to 150 nM | 15 to 150 nM |  |  |  |
| CNCc1c(CO)c2ccccc2n1C1CCN([C@H]2CC[C@@H](C(C)C)CC2)CC1 | < 15 nM | 15 to 150 nM | 15 to 150 nM |  |  |  |
| CC(C)[C@H]1CC[C@@H](N2CCC(n3c(CNC(=O)C(C)(C)C)cc4ccccc43)CC2)CC1 (relative stereo) | 15 to 150 nM | 150 to 5000 nM | 15 to 150 nM |  |  |  |
| CC(C)[C@H]1CC[C@@H](N2CCC(n3c(CN)c(CO)c4ccccc43)CC2)CC1 (relative stereo) | < 15 nM | 15 to 150 nM | 15 to 150 nM |  |  |  |
| CC(C)[C@H]1CC[C@@H](N2CCC(N3C(=O)/C(=N\OCCO)c4ccccc43)CC2)CC1 |  |  |  | 15 to 150 nM | 15 to 150 nM | 150 to 5000 nM |
| CONC(=O)CC1C(=O)N(C2CCN([C@H]3CC[C@@H](C(C)C)CC3)CC2)c2ccc(F)cc21 (some centres unmarked) |  |  |  | < 15 nM | 150 to 5000 nM | > 5000 nM |
| CC(C)[C@H]1CC[C@@H](N2CCC(n3c(COC(=O)C(C)(C)C)cc4ccccc43)CC2)CC1 | < 15 nM | 150 to 5000 nM | 15 to 150 nM |  |  |  |
| CC(C)[C@H]1CC[C@@H](N2CCC(n3cc(CNC(=O)CCCCN)c4ccccc43)CC2)CC1 | 15 to 150 nM |  | 150 to 5000 nM |  |  |  |
| CCNCC(=O)NCc1cn(C2CCN([C@H]3CC[C@@H](C(C)C)CC3)CC2)c2ccccc12 | 15 to 150 nM |  |  |  |  |  |
| CC(C)[C@H]1CC[C@@H](N2CCC(n3c(CO)c(CN)c4ccccc43)CC2)CC1 | < 15 nM | 150 to 5000 nM | < 15 nM |  |  |  |
| CC(C)[C@H]1CC[C@@H](N2CCC(n3cc(CCN)c4cc(Cl)ccc43)CC2)CC1 | 15 to 150 nM | 150 to 5000 nM | 15 to 150 nM |  |  |  |
| CC(C)[C@H]1CC[C@@H](N2CCC(n3cc(CCN)c4ccccc43)CC2)CC1 (relative stereo) | < 15 nM |  |  |  |  |  |
| CC(C)[C@H]1CC[C@@H](N2CCC(n3c(CN)cc4cc(F)ccc43)CC2)CC1 | < 15 nM | 15 to 150 nM | < 15 nM |  |  |  |
| CC(C)[C@H]1CC[C@@H](N2CCC(n3cc(CCNC(N)=O)c4ccccc43)CC2)CC1 | 15 to 150 nM | 150 to 5000 nM | 150 to 5000 nM |  |  |  |
| COC(=O)/C=C1\C(=O)N(C2CCN([C@H]3CC[C@@H](C(C)C)CC3)CC2)c2ccccc21 |  |  |  | 15 to 150 nM | 150 to 5000 nM | 150 to 5000 nM |
| CC(O)c1cc2ccccc2n1C1CCN([C@H]2CC[C@@H](C(C)C)CC2)CC1 (some centres unmarked) | < 15 nM | 15 to 150 nM | 15 to 150 nM |  |  |  |
| CC(C)[C@H]1CC[C@@H](N2CCC(n3c(CNC(=O)c4ccoc4)cc4ccccc43)CC2)CC1 (relative stereo) | < 15 nM | 15 to 150 nM | < 15 nM |  |  |  |
| CCN(CC)CC(=O)NCc1cn(C2CCN([C@H]3CC[C@@H](C(C)C)CC3)CC2)c2ccccc12 | 15 to 150 nM | > 5000 nM | 150 to 5000 nM |  |  |  |
| CNCc1cc2ccccc2n1C1CCN([C@H]2CC[C@@H](C(C)C)CC2)CC1 (relative stereo) | < 15 nM | 15 to 150 nM | < 15 nM |  |  |  |
| CC(C)[C@H]1CC[C@@H](N2CCC(n3cc(CN(C)C)c4ccccc43)CC2)CC1 | 15 to 150 nM |  |  |  |  |  |
| CC(C)[C@H]1CC[C@@H](N2CCC(n3cc(CN4CC[C@@H](O)C4)c4ccccc43)CC2)CC1 | < 15 nM |  |  |  |  |  |
| CON=Cc1cc2ccccc2n1C1CCN([C@H]2CC[C@@H](C(C)C)CC2)CC1 | < 15 nM | 150 to 5000 nM | 15 to 150 nM |  |  |  |
| CCOC(=O)NCc1c(CO)c2ccccc2n1C1CCN([C@H]2CC[C@@H](C(C)C)CC2)CC1 (relative stereo) | < 15 nM | 150 to 5000 nM | < 15 nM |  |  |  |
| CC(C)[C@H]1CC[C@@H](N2CCC(n3c(CNC(=O)OCc4ccccc4)cc4ccccc43)CC2)CC1 | < 15 nM | 15 to 150 nM | < 15 nM |  |  |  |
| CCOC(=O)NCc1c(C=NO)c2ccccc2n1C1CCN([C@H]2CC[C@@H](C(C)C)CC2)CC1 | < 15 nM | 15 to 150 nM | 15 to 150 nM |  |  |  |
| CC(C)C(N)C(=O)OCc1cc2ccccc2n1C1CCN([C@H]2CC[C@@H](C(C)C)CC2)CC1 (some centres unmarked) | < 15 nM | 15 to 150 nM | < 15 nM |  |  |  |
| CC(C)C1CCC(N2CCC(n3cc(CNC(N)=NC#N)c4ccccc43)CC2)CC1 (centres unmarked) | 15 to 150 nM | 150 to 5000 nM | 15 to 150 nM |  |  |  |
| CC(C)[C@H]1CC[C@@H](N2CCC(n3c(CO)c(CO)c4ccccc43)CC2)CC1 | < 15 nM | 15 to 150 nM | 15 to 150 nM |  |  |  |

From USRE49825E1, “Piperidinyl nociceptin receptor compounds” (Astraea Therapeutics, LLC, priority 2015, dated 2024)
